Assay results taken from patent EP0127426A1, “Percutaneous pharmaceutical compositions for external use” (Takeda Chemical Industries, Ltd., priority 1983, dated 1984).

Assay: Percutaneous absorption test in rats, blood concentration of clonidine by liquid chromatography
Conditions: promoting agent in propylene glycol preparation of clonidine (Comparative Example 3)
Procedure: 3 mg of clonidine, an antihypertensive drug, was dissolved in a mixture of 20 mg of lauric acid, one of the percutaneous absorption promoting agents according to this invention, and 177 mg of propylene glycol to prepare a coating sample.
A percutaneous absorption test was carried out in male SD-JCL rats with an average body weight of 250 g. Under pentobarbital anesthesia, the abdomen of each rat was clipped of hairs with an electric clipper and the sample was coated on the denuded abdominal area (5 x 4 cm).
The collected venous blood was centrifuged and 0.2 ml of the plasma was extracted with 1 ml of 0.01 N-NaOH and 5 ml of chloroform. From a 4 ml portion of the chloroform layer, the chloroform was distilled off and the residue was dissolved by addition of 0.2ml of 0.05 M sodium acetate-acetonitrile-tetrahydrofuran (70:30:0.2, v/v). A 50 µl portion of the solution was applied to a liquid chromatograph to determine the concentration of clonidine. The µ-Bondapak Cl8 column was used for this liquid chromatography. The percutaneous absorption of clonidine was evaluated in terms of AUC6 (area under the blood concentration-time curve of clonidine during 0 to 6 hours) and its multiple over the [formula] of the preparation of Comparative Example 1 was calculated.

CCCCCCCCCCCCO [lauryl alcohol]
effectiveness of the percutaneous absorption promoting agent for clonidine: ineffective
